This experiment concerns glycogen phosphorylase a. Kind of experiment: Intracellular calcium activity in post-anaerobic hepatocytes, expressed as glycogen phosphorylase a activity. Type of experiment: cell-based, rat. The note with it: mmols of PO^−3 liberated from glucose-1-phosphate per 1 million viable post-anaerobic cells; chlorpromazine 25 μM, glycine 20 mM, mixture less than 5 mM total; untreated 165.5. How it is done:
Kinase is stimulated by increased intracellular calcium concentration via calmodulin. […] Expt. Thera., Vol. 238, pp. 186-191, 1986. Hepatocytes were incubated anaerobically for 90 minutes, then washed and resuspended in fresh medium containing either no additives (for the untreated cells), chlorpromazine (25 μM), glycine (20 mM or 150 mg per 100 ml), or the mixture of amino carboxylic acids (total amino carboxylic acid concentration was less than 5 mM or 65 mg per 100 ml). Cell viability was assessed as the fraction of lactate dehydrogenase retained intracellularly following a 90 minute aerobic incubation. Intracellular calcium activity was assessed in these post-anaerobic cells by the method described in Long and Moore, supra, and expressed in terms of glycogen phosphorylase a activity. […] A minimum of four observations were made and recorded. The results are reported in Table 7 as mean surviving fraction as follows: […]
For orientation: Calcium assays in cells follow changes in intracellular calcium, usually with a dye or a luminescent sensor.

From US6380254B2, “Method and composition for treating and preventing pathogenic effects caused by intracellular calcium overload” (Leigh Biotechnology, Inc., priority 1994, dated 2002) come the findings set out here.

On to `CN(C)CCCN1c2ccccc2Sc2ccc(Cl)cc21` [Chlorpromazine, chlorpromazine, reference compound], for which the “GLYCOGEN PHOSPHORYLASE A ACTIVITY” value is 129.1 ± 36.5 mmols.
